The conditions of this data set: pig, in vivo.

Oregon Green® 488 paclitaxel [OGP]: the “longitudinal extension from the injection site (mean)” value was found to be 15 mm, the “longitudinal extension from the injection site (range)” value was 13-24 mm, the “staining after delivery into the lumen without needle deployment” value was “staining on the luminal surface only” and the “staining of the adventitia (scored 0-4+)” value is reported as 4+.

Values taken from US20190160257A1, “METHODS AND SYSTEMS FOR INHIBITING VASCULAR INFLAMMATION” (Mercator MedSystems, Inc., priority 2002, published 2019).
